# Antibody variant affinities, Ab-14 heavy chain, assay 1

Source: Engelhart et al. 2022 (doi:10.1038/s41597-022-01779-4), MIT Lincoln Laboratory and A-Alpha Bio; data file from the FLAb repository.

All variants were tested on one target, the spike HR2 peptide PDVDLGDISGINAS (SARS-CoV-2).

Ab-14 is the parent antibody, in scFv form: VH, then the linker GGGGSGGGGSGGGGS, then VL. The light chain is unchanged in all variants.
VH: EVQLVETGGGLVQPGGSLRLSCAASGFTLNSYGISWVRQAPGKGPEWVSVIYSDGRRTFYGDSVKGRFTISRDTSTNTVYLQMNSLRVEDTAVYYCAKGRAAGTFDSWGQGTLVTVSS
VL: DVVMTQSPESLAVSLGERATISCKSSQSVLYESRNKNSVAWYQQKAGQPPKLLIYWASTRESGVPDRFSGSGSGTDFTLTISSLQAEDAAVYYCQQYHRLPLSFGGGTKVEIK

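Library AAYL49 holds single substitutions and randomly drawn double and triple substitutions in the CDRs. The scFvs were displayed on barcoded MATa yeast, the peptide on MATalpha yeast. Mating (16 h, 30 °C) was followed by selection of diploids and sequencing of their barcodes. Each replicate has its own calibration line, from reference interactions of the BCL2 family. There are three technical replicates.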

Variants are written as CDR1, CDR2 and CDR3 of the heavy chain (limits as in the source). Parent: GFTLNSYGIS, VIYSDGRRTFYGDSVK, GRAAGTFDS. This list gathers variants with a substitution at K65 (VH, numbered from residue 1). Values are apparent Kd, the geometric mean of the replicates that gave a signal; lower means stronger binding. "nd" means that the variant was in the library but no mating with the target was seen in any replicate; the authors take this as a sign of poor binding, and no number exists. In this assay the parent's reference entry averaged 4.4 nM; its copy inside this library read 13 µM (one replicate of three). Nonspecific signal, from three strains lacking the peptide, appeared in 15% of pairings of library AAYL49, centred on 11 µM (5% of these signals below 680 nM); values are not corrected for it. The control count says in how many pairings with the empty strains this scFv gave a signal.

The variant GFTLNSFGIS | VIYSDGRRFFYGDSVA | GRAAGTFDS gave 33 nM (3 of 3 replicates; controls 0 of 9). With GFTLNSYGIS | VIYSDGRRVFYGDSVH | GAAAGTFDS the result was 270 nM (3 of 3 replicates; controls 3 of 9). The variant GFTANSYGIS | VIYSDGRRTFYGDSVA | GRAAGTGDS gave nd (0 of 3 replicates; controls 2 of 9). For GFTLNSYGIS | VIYSDPRRTFYGDSVC | GRAAGGFDS, the assay gave nd (0 of 3 replicates; controls 0 of 9). The variant GFTLNSYGIS | VIYSDGRRTHYGDSVH | GRAAGTFDS showed 900 nM (1 of 3 replicates; controls 0 of 9).

For GFTLNSYGIS | VIYSDGRRTFYTDSVH | SRAAGTFDS, the assay gave 87 µM (1 of 3 replicates; controls 0 of 9). With GFTLNSYGIS | VIYSDGRRTAYGDSVN | GWAAGTFDS the result was nd (0 of 3 replicates; controls 0 of 9). With GFTLNSYGIS | VIYSDGRLTFYGDSVQ | GRAAGTFPS the result was 13 µM (2 of 3 replicates; controls 2 of 9). For GFTLNSYGIS | VIYSDGRRTFYGDSVS | GRAAGTFDV, the assay gave 13 nM (3 of 3 replicates; controls 0 of 9). The variant GFTLNSYKIS | VIYKDGRRTFYGDSVT | GRAAGTFDS gave nd (0 of 3 replicates; controls 1 of 9).

With GFTLNSPGIS | VIYSDGRRTFYGDSVC | GRAAGDFDS the result was nd (0 of 3 replicates; controls 0 of 9). The variant GFTLNSYGWS | VIISDGRRTFYGDSVQ | GRAAGTFDS gave nd (0 of 3 replicates; controls 0 of 9). The variant GFTLNSYGIS | MIYSDGRRTFAGDSVS | GRAAGTFDS showed nd (0 of 3 replicates; controls 0 of 9). The variant GFTLNSYGIS | VIYSDGRRTPYGDSVN | GRAAGTFDS gave 31 µM (1 of 3 replicates; controls 3 of 9). With GFTLNSYGDS | VIYSDGRSTFYGDSVD | GRAAGTFDS the result was nd (0 of 3 replicates; controls 2 of 9).

The variant GFTLNSYGIS | VIYSDGRRTFYGDSVV | GRAAGTFDS showed 84 nM (3 of 3 replicates; controls 0 of 9). For GFTLYSYGIS | VIYSCGRRTFYGDSVD | GRAAGTFDS, the assay gave 14 µM (1 of 3 replicates; controls 0 of 9). The variant GFTLNSYGIS | VIYSDGSRTFYGDSVT | GRAAGTFDS gave 710 nM (2 of 3 replicates; controls 0 of 9). The variant GFTLNSYGPS | VPYSDGRRTFYGDSVY | GRAAGTFDS showed 24 µM (1 of 3 replicates; controls 1 of 9). The variant GFTLSSYGIS | VIYSDGRRTFYGDSVG | GRAAGTFKS gave 46 µM (3 of 3 replicates; controls 4 of 9).

The variant GFTLNSYGIS | VIYSDCRRTSYGDSVP | GRAAGTFDS gave nd (0 of 3 replicates; controls 0 of 9). The variant GFTLNSNGIS | VIYSDGRRTFYGDSVS | GRAAGTFDS gave 51 µM (1 of 3 replicates; controls 0 of 9). The variant GFTLNSYGIS | VIYSDGRYTFYGDSVN | GRAAGTFYS showed nd (0 of 3 replicates; controls 1 of 9). The variant GFTLNSYGIS | VIYSDGRRTFVNDSVF | GRAAGTFDS showed nd (0 of 3 replicates; controls 1 of 9). The variant GFTLNSYGIS | VIYSDGRRTFYGDSVH | GRAALTVDS gave nd (0 of 3 replicates; controls 0 of 9).

With GFTLNSYGIS | VIYSDGRRTFYGDSSC | GRAAGTFWS the result was nd (0 of 3 replicates; controls 1 of 9). With GFTLNSYGIS | VIYSDGQRTFYGDSVN | GRAAMTFDS the result was nd (0 of 3 replicates; controls 0 of 9). The variant GFTLCSYGIS | VIYSDGRRWFYGDSVI | GRAAGTFDS showed 210 µM (2 of 3 replicates; controls 2 of 9). For KFTLNSYGIS | VIYSDGRRQFYGDSVN | GRAAGTFDS, the assay gave 64 µM (1 of 3 replicates; controls 0 of 9). With GFTLNSYGIS | VIYSDGRRTFYGDSVQ | GRPAGTFGS the result was 2.0 µM (3 of 3 replicates; controls 3 of 9).

With GFTLNSYGIS | IIYSDGRRTFYGDSVP | GRAAGTFDS the result was 13 µM (1 of 3 replicates; controls 0 of 9). The variant GFTLRSYGIK | VIYSDGRRTFYGDSVP | GRAAGTFDS showed 1.6 µM (1 of 3 replicates; controls 1 of 9). With GFTLNSYQIM | VIYSDGRRTFYGDSVW | GRAAGTFDS the result was 6.0 µM (1 of 3 replicates; controls 2 of 9). For GFTLNSYGIS | VIYSDGRRTFYGDSVT | GRAAGTCDS, the assay gave nd (0 of 3 replicates; controls 1 of 9). The variant GHTLNSYGIS | VIDSDGRRTFYGDSVD | GRAAGTFDS gave 69 µM (2 of 3 replicates; controls 5 of 9).

The variant GFTLNYYGFS | VIYSDGRRTFYGDSVP | GRAAGTFDS showed nd (0 of 3 replicates; controls 1 of 9). The variant GFTLTSYGIS | VIYSDGRRTFYGDSVY | GRAAGTTDS gave 5.2 µM (1 of 3 replicates; controls 5 of 9). With GFTLNSVGIS | VIYSDGRRTFYGDTVI | GRAAGTFDS the result was nd (0 of 3 replicates; controls 1 of 9). For GFTLNSYGIS | VIYSDGRRTFYGDSVA | GSAAGTFDS, the assay gave nd (0 of 3 replicates; controls 0 of 9). For GFTLNSYGIS | VHYSDGRRTFYGDSRQ | GRAAGTFDS, the assay gave 10 µM (1 of 3 replicates; controls 3 of 9).

With GFTLNPYGIS | VICSDGRRTFYGDSVR | GRAAGTFDS the result was 13 µM (1 of 3 replicates; controls 0 of 9). The variant GFTLNSYPIS | VIYSDGRETFYGDSVD | GRAAGTFDS showed 8.5 µM (2 of 3 replicates; controls 0 of 9). For GFTLNLYGIF | VIYSDGRRTFYGDSVC | GRAAGTFDS, the assay gave nd (0 of 3 replicates; controls 0 of 9). The variant GFTLNSYGIS | VIYSDGRRTIYGDSSQ | GRAAGTFDS showed nd (0 of 3 replicates; controls 1 of 9). The variant GFTLNSYGIS | VIYSVGRRTFYVDSVL | GRAAGTFDS showed 22 µM (1 of 3 replicates; controls 1 of 9).

With GFTLNSYGIS | VINSIGRRTFYGDSVC | GRAAGTFDS the result was nd (0 of 3 replicates; controls 0 of 9). The variant GMTLNSYGIS | DIYSDGRRTFYGDSVG | GRAAGTFDS gave nd (0 of 3 replicates; controls 1 of 9).

A selection of 3 entries from above:

| CDR-H1 | CDR-H2 | CDR-H3 | Kd | seen in | control signals |
|---|---|---|---|---|---|
| GFTLNSYKIS | VIYKDGRRTFYGDSVT | GRAAGTFDS | nd | 0/3 | 1/9 |
| GFTLNSYGIS | VIYSDGRRTIYGDSSQ | GRAAGTFDS | nd | 0/3 | 1/9 |
| GFTLNSYGIS | VIYSDGRRTFYGDSVV | GRAAGTFDS | 84 nM | 3/3 | 0/9 |